The test system of series [1] is KB. In words: Cytotoxic activity was evaluated against KBV-1 cells in presence of reserpine. It is filed as functional, Homo sapiens.
Series [2] concerns MCF7. In words: Cytotoxic activity was evaluated against MCF-7/ADR+Reserpine cells. Type of series: functional, Homo sapiens.
Series [3] relates to KB. In words: Cytotoxic activity was evaluated against KBV-1 cells. Type of series: functional, Homo sapiens.
The species entered for series [4] is Mus musculus. In words: Relative concentration of compound in lung compared to concentration in plasma (0.4 ug/mL) at the time of tissue collection from mice; relative concentration.
In series [5] the test system is MCF7. Put plainly: Cytotoxic activity was evaluated against MCF-7 cells. It is filed as functional, Homo sapiens.
Series [6] deals with MCF7. Put plainly: Cytotoxic activity was evaluated against MCF-7/ADR cells. Type of series: functional, Homo sapiens.
For series [7], the system named is KB 3-1. In words: Cytotoxic activity was evaluated against KB3-1 cells. Type of series: functional, Homo sapiens.
Series [8] deals with P388. Put plainly: Cytotoxic activity was evaluated against P388D1/ADR cells. It is filed as functional, Mus musculus.
For series [9], the system named is P388. Put plainly: Cytotoxic Activity was evaluated against P388D1 cells. It is filed as functional, Mus musculus.
The subject of series [10] is P388. Put plainly: Cytotoxic activity was evaluated against P388/ADR + reserpine cells. It is filed as functional, Mus musculus.

On to `CCC(CC)n1ccc2c3c(N)nc(N)nc3ccc21`, for which the Relative IC50 was 1.1 in [1]; 0.7 in [2]; 1.1 in series [3]; 1 nM in [5]; 0.9 in [6]; 1 in series [7]. The compound further gave a concentration ratio (Kp) in [4] of 57.

`CCC(CC)n1c(C)cc2c3c(N)nc(N)nc3ccc21`: the “Relative IC50” value in series [8] was 0.8 nM; in [1], 0.8; in series [9] it was 1; in series [10] it was 0.9 nM; in series [2] it was 0.6; in [3], 1. For the same compound, the results for the “Relative IC50” value in series [5], in [6] and in [7] were 1 nM, 0.9 and 1, respectively. The same compound displayed a Kp in series [4] of 50.
